Laboratory results published in ChEMBL document CHEMBL1156928, “Design of novel nicotinamides as potent and selective monoamine oxidase a inhibitors” (Bioorg Med Chem, 2010).

Protein sequences, listed by entry. Tags and fused reporters are not part of them.
UniProt P21396, whole entry: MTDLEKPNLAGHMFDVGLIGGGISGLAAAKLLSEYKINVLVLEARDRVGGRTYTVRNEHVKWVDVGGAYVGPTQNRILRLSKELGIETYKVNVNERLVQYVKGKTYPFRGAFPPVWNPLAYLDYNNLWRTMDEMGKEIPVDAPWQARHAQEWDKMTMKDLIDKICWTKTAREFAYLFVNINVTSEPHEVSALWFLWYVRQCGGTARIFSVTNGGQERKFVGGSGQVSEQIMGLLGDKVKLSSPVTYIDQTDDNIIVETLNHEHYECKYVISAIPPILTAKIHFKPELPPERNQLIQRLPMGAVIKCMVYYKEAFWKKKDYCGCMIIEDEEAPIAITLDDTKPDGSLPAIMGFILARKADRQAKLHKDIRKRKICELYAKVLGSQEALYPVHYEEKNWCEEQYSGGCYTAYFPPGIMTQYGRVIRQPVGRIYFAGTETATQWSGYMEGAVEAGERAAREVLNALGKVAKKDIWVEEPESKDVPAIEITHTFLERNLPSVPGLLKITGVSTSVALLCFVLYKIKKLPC

Target: Amine oxidase [flavin-containing] A (Rattus norvegicus, UniProt P21396)
Assay: Inhibition of MAOA in Sprague-Dawley rat brain mitochondria using kynuramine substrate by fluorimetry

IC50: 5 µM
Structure (SMILES): CC(C)NNC(=O)c1ccncc1 [IPRONIAZID]
